Results published in PubChem BioAssay AID1325 (NMMLSC, 2008).
Only a part is listed here, and it is no random draw. Calls of active or inactive are those of the source.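 Rule for the calls: active = inhibition above 80%; inactive = the rest.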

Sequences of proteins named here, by UniProt entry; tags and fusion partners are left off.
UniProt Q9UNQ0, whole entry: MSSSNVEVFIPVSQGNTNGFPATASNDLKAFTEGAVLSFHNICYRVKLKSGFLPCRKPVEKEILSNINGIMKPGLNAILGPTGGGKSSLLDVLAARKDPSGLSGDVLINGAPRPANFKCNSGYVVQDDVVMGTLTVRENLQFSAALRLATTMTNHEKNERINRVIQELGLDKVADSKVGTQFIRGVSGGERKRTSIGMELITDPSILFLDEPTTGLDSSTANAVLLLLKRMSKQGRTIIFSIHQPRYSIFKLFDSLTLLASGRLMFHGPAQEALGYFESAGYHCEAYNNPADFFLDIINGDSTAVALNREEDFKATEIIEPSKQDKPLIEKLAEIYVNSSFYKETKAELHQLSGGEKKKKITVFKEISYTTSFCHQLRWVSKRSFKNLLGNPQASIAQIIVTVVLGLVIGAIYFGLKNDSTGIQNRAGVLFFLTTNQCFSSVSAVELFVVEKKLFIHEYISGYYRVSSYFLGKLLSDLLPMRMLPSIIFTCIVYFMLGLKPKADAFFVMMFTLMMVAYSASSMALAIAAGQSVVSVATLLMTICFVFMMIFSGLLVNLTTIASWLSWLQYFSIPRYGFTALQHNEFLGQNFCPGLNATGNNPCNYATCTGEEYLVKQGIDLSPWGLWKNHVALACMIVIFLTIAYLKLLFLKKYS

What follows are molecules tested against Broad substrate specificity ATP-binding cassette transporter ABCG2 (Homo sapiens) (UniProt Q9UNQ0) (assay: blockers of JC-1 export by ABCG2 – multiplex with ABCB1, IgMXP3 cells, flow cytometry, primary screen (AID 1325;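 note: 0% = DMSO and 100% = nicardipine control wells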)). Conditions: JC-1 efflux, at 6.6 µM, active compounds read high.
`COc1ccc(OP(C)(=O)Nc2ccccn2)cc1` (stereo not drawn) was tested, and the inhibition was inactive: 0.02%. In the case of `CN(C)CCOC(=O)C(O)(c1ccccc1)C1CCCC1` (stereo not drawn), the inhibition is reported as inactive: -0.47%. In the case of `COc1ccccc1OP(C)(=O)Nc1ccc(C)cc1C` (stereo not drawn), the inhibition is reported as inactive: 3.27%. In the case of `CP(=O)(Nc1ccccn1)Oc1ccccc1` (stereo not drawn), the inhibition is reported as inactive: 10.3%. With `CCc1ccc(OP(C)(=O)O)cc1` the inhibition was inactive: -0.27%. With `O=[N+]([O-])c1cc([N+](=O)[O-])c(Nc2ccccn2)c([N+](=O)[O-])c1` the inhibition was inactive: 0.66%. In the case of `Cc1c(NP(C)(=O)Oc2ccc(C(C)C)cc2)c(=O)n(-c2ccccc2)n1C` (stereo not drawn), the inhibition is reported as inactive: 0.85%. `COc1ccccc1OP(C)(=O)Nc1ccc(C)c(C)c1` (stereo not drawn) was tested, and the inhibition was inactive: 0.63%. For `COc1ccc(OP(C)(=O)Nc2ccccc2Br)cc1` (stereo not drawn), the inhibition was inactive: 3.53%. With `Cc1cc(C)cc(OP(C)(=O)Nc2cccc(C(F)(F)F)c2)c1` (stereo not drawn) the inhibition was inactive: 23.3%. With `CP(=O)(OCCOc1ccccc1)OCCOc1ccccc1` the inhibition was inactive: 5.57%. `CP(=O)(Nc1ccc(Cl)cc1Cl)Oc1ccccc1` (stereo not drawn) was tested, and the inhibition was inactive: 8.09%. With `Cc1nc2ccc3ccccc3c2o1.O=[N+]([O-])c1cc([N+](=O)[O-])c(O)c([N+](=O)[O-])c1` the inhibition was inactive: 2.06%. `CCOC(=O)c1ccc(NP(C)(=O)Oc2ccc(Cl)cc2)cc1` (stereo not drawn) was tested, and the inhibition was inactive: 26.9%. With `CP(=O)(OC12CC3CC(CC(C3)C1)C2)OC12CC3CC(CC(C3)C1)C2` the inhibition was inactive: 1.32%. In the case of `CCc1ccc(OP(C)(=O)Nc2cccnc2)cc1` (stereo not drawn), the inhibition is reported as inactive: -0.27%. For `CP(=O)(Oc1ccccc1)N1CCOC1=O` (stereo not drawn), the inhibition was inactive: 0.07%. `COc1ccc(OP(C)(=O)Nc2ccc(Br)cc2)cc1` (stereo not drawn) was tested, and the inhibition was inactive: 12.1%. With `CCN(CC)CC(O)COC(=O)C(O)(c1ccccc1)C1CCCCC1` (stereo not drawn) the inhibition was inactive: 1.73%. For `CN(C)C(=O)c1c([N+](=O)[O-])cc([N+](=O)[O-])cc1[N+](=O)[O-]`, the inhibition was inactive: 1.03%. With `CC(C)(C)c1ccc(OP(C)(=O)O)cc1` the inhibition was inactive: 0.8%. In the case of `COc1ccccc1OP(C)(=O)Nc1ccccc1Br` (stereo not drawn), the inhibition is reported as inactive: 0.97%. `CP(=O)(Nc1ccc(Cl)cc1)Oc1ccc(F)cc1` (stereo not drawn) was tested, and the inhibition was inactive: 2.57%. `CCOP(C)(=S)SCC(=O)NC(C)(CC)C(=O)O` (stereo not drawn) was tested, and the inhibition was inactive: -1.93%. With `Cc1ccccc1NP(C)(=O)Nc1ccccc1C` the inhibition was inactive: 0.41%. `CP(=O)(Nc1ccc2c(c1)OCCO2)Oc1ccccc1` (stereo not drawn) was tested, and the inhibition was inactive: 9.19%. For `CN(C)CCOC(=O)C(O)(c1ccccc1)C1CCCCC1` (stereo not drawn), the inhibition was inactive: 2.55%. In the case of `COc1ccc(NP(C)(=O)Oc2ccccc2OC)cc1` (stereo not drawn), the inhibition is reported as inactive: -0.15%. For `COc1ccc(OP(C)(=O)Nc2cccc(Br)c2)cc1` (stereo not drawn), the inhibition was inactive: 14%. In the case of `O=[N+]([O-])c1cc([N+](=O)[O-])c(NCC2CCS(=O)(=O)C2)c([N+](=O)[O-])c1` (stereo not drawn), the inhibition is reported as inactive: 3.94%. For `CCOC(=O)c1ccc(NP(C)(=O)Oc2ccc(F)cc2)cc1` (stereo not drawn), the inhibition was inactive: 1.41%. In the case of `COc1ccc(OP(C)(=O)Nc2ccc(SC(F)(F)F)cc2)cc1` (stereo not drawn), the inhibition is reported as inactive: 2.55%. `CP(=O)(Nc1ccccc1)Oc1ccc(F)cc1` (stereo not drawn) was tested, and the inhibition was inactive: 1.33%. `CCN(CC)CCCOC(=O)C(O)(c1ccccc1)C1CCCCC1` (stereo not drawn) was tested, and the inhibition was inactive: 0.92%. For `CP(=O)(Nc1ccccc1F)Oc1ccccc1` (stereo not drawn), the inhibition was inactive: 4.04%. `CC(C)c1ccc(OP(C)(=O)Nc2ccc(SC(F)(F)F)cc2)cc1` (stereo not drawn) was tested, and the inhibition was inactive: 0.57%. `O=C(OCCN1CCN(CCOCc2ccccc2)CC1)C(O)(c1ccccc1)c1ccccc1` was tested, and the inhibition was inactive: 1.61%. `CCOC(=O)c1ccc(NP(C)(=O)Oc2cc(C)cc(C)c2)cc1` (stereo not drawn) was tested, and the inhibition was inactive: 11.8%. `Cc1cc(C)cc(OP(C)(=O)Nc2ccc(C)cc2C)c1` (stereo not drawn) was tested, and the inhibition was inactive: 0.71%. For `Cc1ccc(C)c(NP(C)(=O)Oc2ccccc2)c1` (stereo not drawn), the inhibition was inactive: -0.42%. For `CP(=O)(Nc1cccc(Br)c1)Oc1ccccc1` (stereo not drawn), the inhibition was inactive: 10.8%. For `Cc1cc(C)cc(OP(C)(=O)Nc2ccccn2)c1` (stereo not drawn), the inhibition was inactive: 31.5%. With `CC1=NCCc2c1[nH]c1ccccc21.O=[N+]([O-])c1cc([N+](=O)[O-])c(O)c([N+](=O)[O-])c1` the inhibition was inactive: 9.56%. For `CP(=O)(Nc1ccc(SC(F)(F)F)cc1)Oc1ccccc1` (stereo not drawn), the inhibition was inactive: -1.93%. With `CCCOc1ccc(NP(C)(=O)Oc2ccc(Cl)cc2)cc1` (stereo not drawn) the inhibition was inactive: -0.11%. With `CN1CCCCC1COC(=O)C1(O)c2ccccc2CCc2ccccc21` (stereo not drawn) the inhibition was inactive: -0.54%. In the case of `COc1ccccc1OP(C)(=O)Nc1c(C)cccc1C` (stereo not drawn), the inhibition is reported as inactive: 0.87%. `O=[N+]([O-])c1cc([N+](=O)[O-])c(-n2nnc3ccccc32)c([N+](=O)[O-])c1` was tested, and the inhibition was inactive: 0%. `Cc1nc2ccc3ccccc3c2s1.O=[N+]([O-])c1cc([N+](=O)[O-])c(O)c([N+](=O)[O-])c1` was tested, and the inhibition was inactive: 14%. With `Cc1cc(C)cc(OP(C)(=O)Nc2ccc(SC(F)(F)F)cc2)c1` (stereo not drawn) the inhibition was inactive: 12.2%. With `CP(=O)(NC(=O)Nc1ccccc1)Oc1ccccc1` (stereo not drawn) the inhibition was inactive: 0.66%. In the case of `CP(=O)(Oc1ccccc1)OC(c1ccccc1)C(F)(F)F` (stereo not drawn), the inhibition is reported as inactive: 3.56%. `Cc1cccc(C)c1OP(C)(=O)Nc1ccc(SC(F)(F)F)cc1` (stereo not drawn) was tested, and the inhibition was inactive: -0.34%. For `CP(=O)(Nc1ccccn1)Oc1ccc(Cl)cc1` (stereo not drawn), the inhibition was inactive: 1.83%. With `CCOC(=O)c1ccc(NP(C)(=O)Oc2ccc(OC)cc2)cc1` (stereo not drawn) the inhibition was inactive: 8.02%. For `CCOP(C)(=S)SCC(=O)NC(C)C(=O)O` (stereo not drawn), the inhibition was inactive: 0.3%. `COc1ccccc1OP(C)(=O)Nc1ccccc1` (stereo not drawn) was tested, and the inhibition was inactive: 1.41%. For `CP(=S)(Nn1cnnc1)Oc1ccccc1` (stereo not drawn), the inhibition was inactive: 2.21%. For `O=[N+]([O-])c1ccc2c(c1)C=Nc1ccccc1O2`, the inhibition was inactive: 2.05%. For `Cc1cccc(C)c1OP(C)(N)=O` (stereo not drawn), the inhibition was inactive: 0.44%. `CC(C)(C)c1ccc(OP(C)(=O)Nc2ccc(SC(F)(F)F)cc2)cc1` (stereo not drawn) was tested, and the inhibition was inactive: 3.02%. With `Cc1cc(C)cc(OP(C)(N)=O)c1` (stereo not drawn) the inhibition was inactive: 12.5%. `COc1ccc(OP(C)(=O)Nc2cccc(F)c2)cc1` (stereo not drawn) was tested, and the inhibition was inactive: 2.78%. With `COc1ccccc1OP(C)(=O)Nc1cc(Cl)ccc1C` (stereo not drawn) the inhibition was inactive: 2.18%. In the case of `Cc1ccc(NP(C)(=O)Oc2ccccc2)c(C)c1` (stereo not drawn), the inhibition is reported as inactive: 4.49%. For `COc1ccccc1OP(C)(=O)Nc1ccc(C)cc1` (stereo not drawn), the inhibition was inactive: -3.45%. For `CCOC(=O)c1ccc(NP(C)(=O)Oc2ccccc2)cc1` (stereo not drawn), the inhibition was inactive: 6.49%. `CCN(CC)CCCOC(=O)C(O)(c1ccccc1)c1ccccc1` was tested, and the inhibition was inactive: 3.13%.
